From US20260207707A1 (UNIVERSITY OF CHICAGO, published 2026) come the findings set out here.

Sequences of proteins named here, by UniProt entry; tags and fusion partners are left off.
alpha-1-anti-trypsin (A1AT), P01009, UniProt P01009, whole entry, looked up: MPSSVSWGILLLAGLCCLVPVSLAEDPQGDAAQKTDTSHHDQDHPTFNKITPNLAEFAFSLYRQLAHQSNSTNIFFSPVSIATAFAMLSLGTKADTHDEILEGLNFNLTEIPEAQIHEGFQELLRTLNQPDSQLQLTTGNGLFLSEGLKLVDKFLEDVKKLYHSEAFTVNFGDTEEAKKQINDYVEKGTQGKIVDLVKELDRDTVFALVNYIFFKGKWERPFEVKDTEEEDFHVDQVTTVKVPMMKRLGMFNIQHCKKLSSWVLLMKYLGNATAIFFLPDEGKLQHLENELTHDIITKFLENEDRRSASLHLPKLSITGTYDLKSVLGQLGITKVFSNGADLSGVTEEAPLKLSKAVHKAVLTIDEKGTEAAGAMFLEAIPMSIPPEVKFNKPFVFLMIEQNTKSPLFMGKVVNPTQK

The series has as its target alpha-1-anti-trypsin (A1AT), P01009.

B1: neutrophil elastase (ELANE) (protein)
chain: IVGGRRARPHAWPFMVSLQLRGGHFCGATLIAPNFVMSAAHCVANVNVRAVRVVLGAHNLSRREPTRQVFAVQRIFENGYDPVNLLNDIVILQLNGSATINANVQVAQLPAQGRRLGNGVQCLAMGWGLLGRNRGIASVLQELNVTVVTSLCRRSNVCTLVRGRQAGVCFGDSGSPLVCNGLIHGIASFVRGGCASGLYPDAFAPVAQFVNWIDSIIQ
Take B1: the “ELANE catalytic activity (chromogenic substrate activity assay)” value was “inactivation was confirmed with a chromogenic substrate activity assay”.
